Test results published in patent publication US20050239873A1, “2 Methoxy antimycin a derivatives and methods of use” (priority 1999, published 2005).

Legend:
[1] = tested on: mice; details: single intravenous dose; cited from earlier work
[2] = tested on: TABX1A cells (under-expressing Bcl-xL); assay: Cell viability by trypan blue dye exclusion; details: estimated from the dose-response curve
Description: (§1) Briefly, a DNA fragment encoding the full-length mouse BCl-xL cDNA was isolated from the plasmid PBS.BCL-xL (Tzung et al., Am. J. Path. 150:1985-1995, 1997, incorporated herein by reference in its entirety) by digestion with the restriction endonuclease EcoRI. This EcoRI fragment was cloned into the EcoRI site of the mammalian expression vector pSFFV (Fuhlbrigge et al., Proc. Nat. Acad. Sci. USA 85:5649-5653, 1988) in both sense and antisense orientations, to form expression plasmids pSFFV.Bcl-xL(sense) or pSFFV.Bcl-xL(antisense), respectively. […]
(§2) Selected transfectants were then tested for whole cell sensitivity to several apoptotic agents. […] Cell viability was determined by trypan blue dye exclusion. The percentage of viable cells was calculated by the number of viable cells (treated with a particular apoptogenic agent) divided by the number in the control group (untreated).
(§3) TABX2S cells and TABX1A cells were also examined for the effects of various mitochondrial inhibitors. […] At various time points after drug treatment, cells were trypsinized, and cell viability was determined by trypan blue dye exclusion. The number of viable cells were counted and normalized to control group (i.e., % control=number of viable cells (treated group)/number of viable cells (control group)×100).

[3] = tested on: TAMH.neo cells (control); assay: Cell viability by trypan blue dye exclusion; details: estimated from the dose-response curve
Description: as §1, §2, §3

[4] = tested on: TABX2S cells (over-expressing Bcl-xL); details: mouse
Description: as §1, §2, §3

For antimycin A, the LD50 [1] is given as 0.893 mg/kg, the LD50 [2] is given as 8.3 µM and the LD50 [3] is given as 8.3 µM. The “difference in LD50 between TABX2S and TABX1A or TAMH.neo cells” value [4] was “seven-fold”.
